A short description of assay [1]: qHTS assay to test for compound auto fluorescence at 460 nm (blue) in HepG2 cell free culture (AID 720685). Note: % is set by controls: 0 for no effect and ±100 for the full control effect. To be noted: Cell-free culture medium, blue autofluorescence 405/460 nm; at 91.3 µM (top of the series) unless noted. The essentials:
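Compound (23 nL) or DMSO pinned into cell-free MEM with 10% FBS; blue fluorescence read at 405/460 nm excitation/emission, expressed as auto-fluorescence equivalency to triamterene.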

Sequences of proteins named here, by UniProt entry; tags and fusion partners are left off. A change or cut given only in a name is not applied to a line headed by its entry.
UniProt P04150: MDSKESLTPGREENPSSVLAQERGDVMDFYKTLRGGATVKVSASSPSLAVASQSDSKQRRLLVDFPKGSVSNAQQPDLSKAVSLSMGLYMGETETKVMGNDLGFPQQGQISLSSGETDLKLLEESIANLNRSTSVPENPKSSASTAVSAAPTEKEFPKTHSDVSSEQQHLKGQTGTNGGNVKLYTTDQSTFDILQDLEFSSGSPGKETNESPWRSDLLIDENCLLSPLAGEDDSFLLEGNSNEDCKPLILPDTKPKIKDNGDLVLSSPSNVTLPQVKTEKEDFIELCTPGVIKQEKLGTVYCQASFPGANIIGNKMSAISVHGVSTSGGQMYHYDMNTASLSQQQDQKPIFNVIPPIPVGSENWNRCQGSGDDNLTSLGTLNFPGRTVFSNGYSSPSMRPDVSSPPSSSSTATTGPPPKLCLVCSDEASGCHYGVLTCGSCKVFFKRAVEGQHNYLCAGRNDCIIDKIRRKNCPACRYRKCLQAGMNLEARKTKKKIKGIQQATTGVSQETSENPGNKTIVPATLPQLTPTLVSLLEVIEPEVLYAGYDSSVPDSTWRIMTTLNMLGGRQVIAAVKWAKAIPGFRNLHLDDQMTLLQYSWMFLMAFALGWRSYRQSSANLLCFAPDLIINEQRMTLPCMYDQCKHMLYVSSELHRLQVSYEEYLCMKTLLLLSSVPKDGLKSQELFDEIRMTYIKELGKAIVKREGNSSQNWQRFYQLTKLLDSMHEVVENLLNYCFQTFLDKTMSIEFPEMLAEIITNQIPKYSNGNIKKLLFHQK
UniProt P03372, whole entry, looked up: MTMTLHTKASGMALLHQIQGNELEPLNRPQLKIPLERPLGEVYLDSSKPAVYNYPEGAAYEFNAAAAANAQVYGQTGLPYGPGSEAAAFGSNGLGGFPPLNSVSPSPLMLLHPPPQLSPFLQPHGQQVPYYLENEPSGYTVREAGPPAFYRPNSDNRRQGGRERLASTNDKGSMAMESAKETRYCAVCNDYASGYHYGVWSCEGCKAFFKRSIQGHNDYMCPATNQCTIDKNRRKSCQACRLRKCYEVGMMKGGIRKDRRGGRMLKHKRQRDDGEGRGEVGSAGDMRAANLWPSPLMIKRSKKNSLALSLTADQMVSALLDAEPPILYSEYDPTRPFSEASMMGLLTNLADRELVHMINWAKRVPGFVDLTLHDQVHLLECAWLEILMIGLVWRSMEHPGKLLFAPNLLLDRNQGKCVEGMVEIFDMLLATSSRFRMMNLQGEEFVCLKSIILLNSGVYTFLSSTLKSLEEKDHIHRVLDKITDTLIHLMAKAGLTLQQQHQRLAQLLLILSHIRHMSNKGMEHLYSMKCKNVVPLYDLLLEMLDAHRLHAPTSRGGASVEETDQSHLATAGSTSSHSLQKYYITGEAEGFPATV
UniProt P10275: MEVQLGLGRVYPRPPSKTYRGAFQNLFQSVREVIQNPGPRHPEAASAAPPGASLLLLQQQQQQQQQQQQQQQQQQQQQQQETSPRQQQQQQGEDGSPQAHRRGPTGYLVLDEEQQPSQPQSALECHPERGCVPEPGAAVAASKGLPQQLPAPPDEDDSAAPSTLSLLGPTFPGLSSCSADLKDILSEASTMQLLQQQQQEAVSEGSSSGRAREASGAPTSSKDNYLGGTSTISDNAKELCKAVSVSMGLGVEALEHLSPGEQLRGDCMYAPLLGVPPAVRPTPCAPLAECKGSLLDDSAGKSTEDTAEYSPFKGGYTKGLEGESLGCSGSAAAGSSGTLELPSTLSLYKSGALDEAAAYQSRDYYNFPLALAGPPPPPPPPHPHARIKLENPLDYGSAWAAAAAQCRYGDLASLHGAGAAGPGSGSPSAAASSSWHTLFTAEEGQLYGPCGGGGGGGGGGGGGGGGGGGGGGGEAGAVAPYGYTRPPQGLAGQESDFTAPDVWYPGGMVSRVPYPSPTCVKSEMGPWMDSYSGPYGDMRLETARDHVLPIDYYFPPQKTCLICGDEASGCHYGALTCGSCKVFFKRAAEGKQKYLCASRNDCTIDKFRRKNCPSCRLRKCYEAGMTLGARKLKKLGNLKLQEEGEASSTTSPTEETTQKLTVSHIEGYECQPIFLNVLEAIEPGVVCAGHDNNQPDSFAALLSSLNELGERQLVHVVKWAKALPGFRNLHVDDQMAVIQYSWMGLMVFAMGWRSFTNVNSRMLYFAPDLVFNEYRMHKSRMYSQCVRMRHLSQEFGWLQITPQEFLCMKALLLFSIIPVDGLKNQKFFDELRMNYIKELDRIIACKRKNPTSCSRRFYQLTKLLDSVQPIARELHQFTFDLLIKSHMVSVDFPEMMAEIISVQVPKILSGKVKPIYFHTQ

Assay [2] is described as follows: qHTS assay to test for compound auto fluorescence at 535 nm (green) in HepG2 cell free culture (AID 720686). Note: % is set by controls: 0 for no effect and ±100 for the full control effect. To be noted: Cell-free medium, green autofluorescence 485/535 nm; at 91.3 µM (top of the series) unless noted. In general terms: qHTS replaces the single test concentration by a dilution series.
Assay [3] in a line: qHTS assay to test for compound auto fluorescence at 460 nm (blue) in HepG2 cells (AID 720687). Note: % is set by controls: 0 for no effect and ±100 for the full control effect. To be noted: autofluorescence 405/460 nm, 1 h; at 91.3 µM (top of the series) unless noted. An outline of the steps:
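Cells (2,000/well in MEM with 10% FBS) attached overnight at 37 C, then were exposed to compound or DMSO for 1 hr at 37 C, 5% CO2. Fluorescence read at Ex/Em 405/460 nm, expressed as triamterene-equivalent signal.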

The target of assay [4] is Glucocorticoid receptor (Homo sapiens) (UniProt P04150). The assay is described as follows: qHTS assay to identify small molecule agonists of the glucocorticoid receptor (GR) signaling pathway (AID 720691; active = well fitted activation curve with a large enough effect in the signal ratio in the repeat runs, not every such curve was filed as active; inconclusive = weak or mixed curves, or effect the other way; inactive = no such curve, though single readings can be large or run the other way; the % refers to the signal ratio; note: % is set by controls: 0 for no effect and ±100 for the full control effect). As to conditions: GR-bla HeLa, beta-lactamase reporter ratio, 18 h; at 62.4 µM (top of the series) unless noted.
The target is the same in assay [5]. Nature of the assay: qHTS assay to identify small molecule antagonists of the glucocorticoid receptor (GR) signaling pathway (AID 720692; active = well fitted inhibition curve with a large enough effect in the signal ratio in the repeat runs, not every such curve was filed as active; inconclusive = weak or mixed curves, or effect the other way; inactive = no such curve, though single readings can be large or run the other way; the % refers to the signal ratio; note: % is set by controls: 0 for no effect and ±100 for the full control effect). As to conditions: GR-bla HeLa, beta-lactamase FRET ratio, dexamethasone-stimulated, 18 h; at 58.5 µM (top of the series) unless noted.
The nature of assay [6]: qHTS assay to identify small molecule antagonists of the glucocorticoid receptor (GR) signaling pathway - cell viability counter screen (AID 720693). Note: nearly all actives have a fitted effect of over 55% in size. Note: potency is the fitted concentration of half-maximal effect.
The nature of assay [7]: qHTS assay to identify small molecule antagonists of the thyroid receptor (TR) signaling pathway - cell viability counter screen (AID 743064). Note: nearly all actives have a fitted effect of over 50% in size. Note: potency is the fitted concentration of half-maximal effect. An outline of the steps: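 Same-well viability check: GH3.TRE-Luc cells stimulated with 1 nM T3 alongside test compound for 23.5 h, followed by CellTiter-Fluor fluorescence.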
In assay [8] the test system is thyroid hormone receptor (rat, GH3 cells). The assay is described as follows: qHTS assay to identify small molecule agonists of the thyroid receptor (TR) signaling pathway (AID 743066; calls by dose curve; note: % is set by controls: 0 for no effect and ±100 for the full control effect). To be noted: GH3.TRE-Luc cells, TR agonist luciferase, 24 h; at 83.9 µM (top of the series) unless noted.
Assay [9] concerns the target Estrogen receptor (Homo sapiens) (UniProt P03372). Nature of the assay: qHTS assay to identify small molecule antagonists of the estrogen receptor alpha (ER-alpha) signaling pathway (AID 743069; active = well fitted curve in the direction sought with a large enough effect in the signal ratio in the repeat runs, not every such curve was filed as active; inconclusive = weak or mixed curves, or effect the other way; inactive = no such curve, though single readings can be large or run the other way; the % refers to the signal ratio; note: potency is the fitted concentration of half-maximal effect). The essentials:
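HEK293 cells stably carrying an ER-alpha-UAS-bla beta-lactamase reporter were pre-cultured overnight in 2% charcoal-stripped FBS medium. Test compounds in DMSO were added together with 17beta-estradiol for 18 hr at 37C. Read-out was fluorescence after 2 hr with LiveBLAzer B/G FRET substrate at room temperature.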

Assay [10] can be described thus: qHTS assay to identify small molecule antagonists of the estrogen receptor alpha (ER-alpha) signaling pathway - cell viability counter screen (AID 743074; calls by dose curve; note: nearly all actives have a fitted effect of over 45% in size; note: potency is the fitted concentration of half-maximal effect).
Assay [11] has as its target Estrogen receptor (Homo sapiens) (UniProt P03372). Nature of the assay: qHTS assay to identify small molecule agonists of the estrogen receptor alpha (ER-alpha) signaling pathway (AID 743075; calls by dose curve; note: potency is the fitted concentration of half-maximal effect).
Assay [12] has the same target. Nature of the assay: qHTS assay to identify small molecule agonists of the estrogen receptor alpha (ER-alpha) signaling pathway using the BG1 cell line (AID 743079). Note: % is set by controls: 0 for no effect and ±100 for the full control effect; nearly all actives have a fitted effect of over 20% in size.
Assay [13] can be described thus: qHTS assay to identify small molecule antagonists of the estrogen receptor alpha (ER-alpha) signaling pathway using the BG1 cell line (AID 743080; calls by dose curve;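 note: BG1 cells stimulated with 17beta-estradiol alongside compound; % is set by controls: 0 for no effect and ±100 for the full control effect; nearly all actives have a fitted effect of over 25% in size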). As to conditions: BG1Luc4E2 ERE-luciferase antagonist mode, luminescence; at 70.3 µM (top of the series) unless noted. The essentials:
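Seeding, 24 h rest, compound transfer from DMSO, 17beta-estradiol addition, 21.5 h incubation, CellTiter-Fluor (30 min, 37 C), then ONE-Glo (30 min, room temperature): this sequence was run on BG1-Luc-4E2 reporter cells.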

The nature of assay [14]: qHTS assay for identifying genotoxic compounds that show differential cytotoxicity against isogenic chicken DT40 cell lines with known DNA damage response pathways - wild type cell line (AID 743012). Note: nearly all actives have a fitted effect of over 60% in size. Note: potency is the fitted concentration of half-maximal effect. The essentials:
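Quantitative HTS on parental DT40 cells: 40 h compound treatment at 37 C/5% CO2, with viability then determined by CellTiter-Glo luminescence. Values serve as the DNA repair-proficient reference for differential cytotoxicity.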

The nature of assay [15]: qHTS assay for identifying genotoxic compounds that show differential cytotoxicity against isogenic chicken DT40 cell lines with known DNA damage response pathways - Rev3 mutant cell line (AID 743014). Note: nearly all actives have a fitted effect of over 55% in size. Note: potency is the fitted concentration of half-maximal effect.
Assay [16] in a line: qHTS assay for identifying genotoxic compounds that show differential cytotoxicity against isogenic chicken DT40 cell lines with known DNA damage response pathways - Rad54/Ku70 mutant cell line (AID 743015). Note: nearly all actives have a fitted effect of over 60% in size. Note: potency is the fitted concentration of half-maximal effect.
The target in assay [17] is Androgen receptor (Homo sapiens) (UniProt P10275). The assay is described as follows: qHTS assay to identify small molecule antagonists of the androgen receptor (AR) signaling pathway (AID 743035; active = well fitted inhibition curve with a large enough effect in the signal ratio in the repeat runs, not every such curve was filed as active; inconclusive = weak or mixed curves, or effect the other way; inactive = no such curve, though single readings can be large or run the other way; the % refers to the signal ratio; note: potency is the fitted concentration of half-maximal effect).
The target is the same in assay [18]. Nature of the assay: qHTS assay to identify small molecule agonists of the androgen receptor (AR) signaling pathway using the MDA cell line (AID 743040; note: % is set by controls: 0 for no effect and ±100 for the full control effect; nearly all actives have a fitted effect of over 20% in size). To be noted: MDA-kb2 AR-luc cells, MMTV luciferase, 16 h; at 70.3 µM (top of the series); hits give high values.
Assay [19] has the same target. Nature of the assay: qHTS assay to identify small molecule antagonists of the androgen receptor (AR) signaling pathway using the MDA cell line (AID 743042; note: potency is the fitted concentration of half-maximal effect; nearly all actives have a fitted effect of over 55% in size).

The list shows a part of the results, in another mix than the full data. Active and inactive are the calls of the source. Unless noted, calls come from the whole dose curve; as a rule, active = well fitted curve in the direction sought with a large enough effect in the repeat runs; inconclusive = weak or mixed curves; inactive = no such curve, though single readings can be large; an effect the other way counts as inactive or inconclusive.

For the compound `CN(C(=O)Cc1cccc2occc12)[C@H]1CC[C@@]2(CCCO2)C[C@@H]1N1CCCC1`, the fluorescence, % of fluorescent control in assay [1] is inactive: 0.103%; in [3] it was inactive: 0.0326%. Further, in [2], the fluorescence, % of fluorescein control is inactive: -0.0092%. Further, the activation in assay [4] is inactive: -2.22%; in [8], inactive: -1.91%. Besides, the values for the activity change, negative = inhibition in [5] and in assay [13] were inactive: -0.169% and inactive: 2.51%, respectively. The Potency entry in [6], in assay [7], in assay [9], in assay [10], in assay [11] and in assay [12] was “inactive” throughout.
Consider `O=P(Cl)(Cl)c1ccccc1`, for which the fluorescence, % of fluorescent control in assay [1] was inactive: 0.0454%; in assay [3], inactive: 0.0046%. The fluorescence, % of fluorescein control in assay [2] was inactive: 0.0247%. Also, the activation in [4] was inactive: 2.08%; in assay [8] it was inactive: 0.504%. Further, the Potency entry in assay [6], in assay [14], in assay [15], in assay [16], in assay [7] and in assay [9] was “inactive” in each case. Also, the Potency result in assay [10], in assay [11] and in assay [12] was “inactive” throughout. Also, in [13], the activity change, negative = inhibition is inactive: -4.74%.
Consider `CCOC(=O)Cl`, for which the fluorescence, % of fluorescent control was inactive: -0.0025% in [1] and inactive: -0.0106% in assay [3]. Also, the fluorescence, % of fluorescein control in [2] is inactive: -0.111%. Further, the activation in assay [4] was inactive: -1.24%; in [8], inactive: -0.207%. For the same compound, the activity change, negative = inhibition in [5] is inactive: -4.2%; in assay [13], inactive: -7.72%. For the same compound, the Potency entry in assay [6], in [14], in assay [15], in assay [16], in assay [7] and in assay [9] was “inactive” throughout. The Potency entry in assay [10], in [11] and in [12] was “inactive” in each case.
As to `O=[As]c1ccccc1` (stereo not drawn), the fluorescence, % of fluorescent control was inactive: 0.0188% in [1] and inactive: -0.178% in assay [3]. For the same compound, the fluorescence, % of fluorescein control in [2] is inactive: -0.174%. Further, the Potency in assay [6] is active: 4.9 µM; in assay [14] it was active: 0.0686 µM; in [15] it was active: 0.077 µM; in assay [17] it was active: 0.347 µM; in [19], active: 0.306 µM; in assay [7], active: 0.137 µM. The Potency in [9] was active: 3.09 µM [inconclusive]; in assay [10], active: 4.9 µM; in [11], active: 4.36 µM [inconclusive]. Moreover, in [18], the activity change was inactive: -11.1%.
As to `N#CSc1ccc([N+](=O)[O-])cc1[N+](=O)[O-]`, the fluorescence, % of fluorescent control in [1] is inactive: -0.122%; in assay [3], inactive: -0.626%. Also, the fluorescence, % of fluorescein control in [2] was inactive: -0.026%. Also, the Potency was active: 1.22 µM in [14], active: 1.22 µM in [15] and active: 1.37 µM in assay [16].
`CC(C)CCCCCCCOP(OCCCCCCCC(C)C)Oc1ccccc1`: the fluorescence, % of fluorescent control in assay [1] is inactive: -0.166%; in assay [3], inactive: -0.0951%. Also, the fluorescence, % of fluorescein control in [2] was inactive: 0.0803%. In addition, the activation in assay [4] is inactive: -1.35%; in assay [8], inactive: -1.7%. For the same compound, the results for the activity change, negative = inhibition in [5] and in [13] were inactive: -20.2% and inactive: 21.8%, respectively. Further, the Potency entry in assay [6], in [14], in assay [15], in assay [7], in assay [10] and in assay [11] was “inactive” each time. Further, in assay [12], the Potency entry was “inactive”.
`O=[N+]([O-])c1ccc(S(=O)(=O)O)c([N+](=O)[O-])c1`: the fluorescence, % of fluorescent control is inactive: 0.0061% in [1] and inactive: -0.0714% in assay [3]. The fluorescence, % of fluorescein control in assay [2] was inactive: 0.0183%. The Potency entry in assay [6], in assay [7] and in assay [10] was “inactive” throughout.

The values above are taken from PubChem BioAssay (Tox21).
